What all share (experiment): low-speed co-sedimentation, McGhee-von Hippel fit
Test [1] concerns the target actin filaments (skeletal muscle, long, free barbed ends) (Gallus gallus) (UniProt P68139).
The target of test [2] is actin filaments (skeletal muscle, long, Cdc12p-bound) (Gallus gallus) (UniProt P68139).
The target in test [3] is actin filaments (skeletal muscle, short, Cdc12p-assembled) (Gallus gallus) (UniProt P68139).

The term Kd denotes the constant that tells how readily two partners part at equilibrium. fascin-1 (from UniProt Q16658): the dissociation constant Kd in test [1] was 396 nM; in test [2], 303 nM; in test [3], 431 nM.

Values taken from paper PMC9479110.
